Tests used:
mesothelin protein [1] = molecular target: T1, mesothelin protein (Homo sapiens, UniProt Q13421); test: Affinity measurements and kinetic analysis using BIAcore (SPR), mesothelin immobilised; format: binding; settings: BIAcore T200, 25 degree C, 1:1 Langmuir model
Experimental: To know the biding kinetics difference among individual antibodies, surface plasmon resonance (SPR) measurement with a BIAcore T200 (Cytiva Inc.) was used as previously described (Karlsson & Falt, (1997) J. Immunol Methods 200:121-133). Carboxymethylated dextran biosensor chips (CM5, Cytiva Inc.) were activated with N-ethyl-N′-(3-dimethylaminopropyl)-carbodiimide hydrochloride (EDC) and N-hydroxysuccinimide (NHS) according to the supplier's instructions. Mesothelin protein was diluted with 10 mM sodium acetate, pH 4.0, into 5 μg/ml before injection at a flow rate of 10 μL/minute to achieve approximately 1500 response units (RU) of coupled protein followed by the injection of 1M ethanolamine to block unreacted groups. For kinetics measurements, two-fold serial dilutions of anti-mesothelin mAb (0.3125 nM to 40 nM) were injected in HBS-EP+ Biacore running buffer provided by the manufacturer (Cytiva Inc.) at 25 degree C. at a flow rate of 30 μL/min, and binding responses on the mesothelin protein were corrected by subtraction of responses on a blank flow cell. Association rates (kon or ka) and dissociation rates (koff or kd) were calculated using a simple one-to-one Langmuir binding model with separate fittings of kon and koff was used. (Cytiva.™. Biacore Insight Evaluation Software).

The chains behind the UniProt entries cited, without tags or fusion partners. A line that says so, or that is headed by a name, gives the form on record, which may keep a tag or linker.
UniProt Q13421, with tags, fused parts or gaps: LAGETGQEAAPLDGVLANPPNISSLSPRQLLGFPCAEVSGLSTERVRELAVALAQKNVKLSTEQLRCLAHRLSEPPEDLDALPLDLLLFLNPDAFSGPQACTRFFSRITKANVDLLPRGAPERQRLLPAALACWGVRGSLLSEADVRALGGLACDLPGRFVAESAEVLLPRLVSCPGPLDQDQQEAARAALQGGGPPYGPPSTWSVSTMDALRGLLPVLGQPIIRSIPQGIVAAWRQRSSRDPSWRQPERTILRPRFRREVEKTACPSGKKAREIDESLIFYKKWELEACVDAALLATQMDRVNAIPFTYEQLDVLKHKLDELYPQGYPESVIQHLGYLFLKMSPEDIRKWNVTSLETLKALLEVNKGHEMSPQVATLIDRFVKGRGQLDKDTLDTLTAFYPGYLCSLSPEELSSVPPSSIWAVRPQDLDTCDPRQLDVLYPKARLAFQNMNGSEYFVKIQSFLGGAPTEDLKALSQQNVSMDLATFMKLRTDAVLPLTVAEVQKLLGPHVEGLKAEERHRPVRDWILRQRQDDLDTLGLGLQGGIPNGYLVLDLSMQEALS

mesothelin protein [2] = molecular target: T1, mesothelin protein; test: Determination of antibody binding affinity by ELISA; settings: plate coated with mesothelin protein; non-linear regression
Experimental: ELISA plates were coated with 1˜2 μg/100 μl per well of mesothelin protein. Wells were rinsed for 3 times with PBS and blocked with 300 μl 5% MPBS per well for 2 hr at 37° C. After washing with PBS, wells were incubated with serial diluted mesothelin antibodies in 5% MPBS for 1.5 hours at 37° C. The plates were washed and goat polyclonal anti-human IgG-HRP antibody (1:10,000) (Jackson ImmunoResearch) was added into each well. The absorbance was measured as described above and the binding affinities of antibodies were calculated by non-linear regression with Prism software (GraphPad).

Kd (mesothelin protein [1]): 0.0035 nM
Kd (mesothelin protein [2]): 0.0836 nM
Substance: SS1: mouse anti-mesothelin antibody clone SS1, SEQ ID NOs: 7 and 8, of U.S. Pat. No. 7,081,518 B1; expressed as human Fc chimera
